Sequences of proteins named here, by UniProt entry; tags and fusion partners are left off.
UniProt P00519, whole entry: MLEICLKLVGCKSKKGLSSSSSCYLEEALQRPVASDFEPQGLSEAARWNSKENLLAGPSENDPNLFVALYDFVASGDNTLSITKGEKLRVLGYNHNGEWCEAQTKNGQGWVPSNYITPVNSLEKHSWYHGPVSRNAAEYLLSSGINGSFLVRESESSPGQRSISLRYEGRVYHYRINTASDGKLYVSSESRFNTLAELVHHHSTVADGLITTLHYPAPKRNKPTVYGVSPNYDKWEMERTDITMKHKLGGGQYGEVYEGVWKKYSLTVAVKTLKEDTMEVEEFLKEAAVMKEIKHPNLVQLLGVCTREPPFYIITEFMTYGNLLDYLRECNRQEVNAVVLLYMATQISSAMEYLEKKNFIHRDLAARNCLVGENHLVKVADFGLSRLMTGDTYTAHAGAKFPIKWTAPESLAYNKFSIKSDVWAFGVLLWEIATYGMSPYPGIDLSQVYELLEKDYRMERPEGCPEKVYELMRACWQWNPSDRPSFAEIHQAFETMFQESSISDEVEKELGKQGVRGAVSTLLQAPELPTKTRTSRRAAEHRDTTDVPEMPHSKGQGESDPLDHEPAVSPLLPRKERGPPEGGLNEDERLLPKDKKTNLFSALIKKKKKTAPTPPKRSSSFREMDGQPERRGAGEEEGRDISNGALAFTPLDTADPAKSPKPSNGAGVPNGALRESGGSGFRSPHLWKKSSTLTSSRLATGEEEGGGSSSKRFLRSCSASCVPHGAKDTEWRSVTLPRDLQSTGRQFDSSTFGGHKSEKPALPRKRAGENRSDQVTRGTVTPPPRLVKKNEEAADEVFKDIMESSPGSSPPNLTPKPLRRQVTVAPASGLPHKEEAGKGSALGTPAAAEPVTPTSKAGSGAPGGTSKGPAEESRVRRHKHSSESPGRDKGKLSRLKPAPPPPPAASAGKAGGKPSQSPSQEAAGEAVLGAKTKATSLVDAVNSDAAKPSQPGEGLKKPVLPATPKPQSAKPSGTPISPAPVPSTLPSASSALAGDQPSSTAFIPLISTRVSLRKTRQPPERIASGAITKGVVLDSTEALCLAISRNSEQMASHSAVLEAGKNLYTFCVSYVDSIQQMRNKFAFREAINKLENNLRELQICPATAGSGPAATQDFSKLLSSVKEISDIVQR

In ChEMBL document CHEMBL2029213, “Multiple determinants for selective inhibition of apicomplexan calcium-dependent protein kinase CDPK1” (J Med Chem, 2012):

Target: Tyrosine-protein kinase ABL1 (Homo sapiens, UniProt P00519)

Ki: 280 nM
Structure (SMILES): CC(C)n1nc(-c2cc3c(Cl)cccc3[nH]2)c2c(N)ncnc21
